The target of this experiment is Glutamate receptor ionotropic, NMDA 1 (Homo sapiens, UniProt Q05586).

This is an account of results in ChEMBL document CHEMBL5729155, “Prodrugs of modulators of the NMDA receptor” (2022).

Usually Ki stands for a dissociation constant, usually derived from enzyme kinetics or from competition with a known ligand. The low end stands for higher affinity, the high end for lower affinity.

Structures are written as SMILES.

As to `N[C@H](CNC(=O)c1cc2nccc(Br)c2s1)C(=O)O`, the Ki worked out at 63 nM.
